# Binding of CDR-mutated scFvs to a peptide of the spike HR2 region

The measurements come from Li et al. 2023 (doi:10.1038/s41467-023-39022-2) through the FLAb antibody collection.

The target is the same throughout: PDVDLGDISGINAS, from the HR2 region of SARS-CoV-2 spike.

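Phage display of a naive human antibody library on the peptide gave the parent. This is the validation round: designs drawn from the data on random variants, tested in the same kind of assay. Several design methods are mixed in this list. AlphaSeq pools MATa yeast showing the antibodies with MATalpha yeast showing the peptide. After mating in shaken culture at 30 °C for 16 h, diploids were selected and their barcode pairs sequenced. The ratio of observed to expected reads was calibrated, replicate by replicate, on BCL2-family standards whose Kd was known from biolayer interferometry. The assay was run in six technical replicates.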

Each scFv is VH, a (GGGGS)3 linker, VL, as in the parent Ab-14, and differs from it in the CDRs of the light chain only.
VH: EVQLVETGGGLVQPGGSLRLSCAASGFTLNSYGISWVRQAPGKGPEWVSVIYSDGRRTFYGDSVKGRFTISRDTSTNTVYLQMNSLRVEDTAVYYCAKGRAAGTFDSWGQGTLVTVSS
VL: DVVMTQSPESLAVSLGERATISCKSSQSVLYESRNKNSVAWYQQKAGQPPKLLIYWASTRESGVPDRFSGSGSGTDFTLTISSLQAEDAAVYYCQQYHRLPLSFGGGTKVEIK

Variants are written as CDR1, CDR2 and CDR3 of the light chain (limits as in the source). Parent: KSSQSVLYESRNKNSVA, WASTRES, QQYHRLPLS.
The read-out is the apparent dissociation constant on a log10 scale (nM): the lower, the stronger.
The mean shown is taken over the replicates in which the pair was detected.
Where no diploid with the target was found in that replicate, the entry reads "nd": below detection, most likely a poor binder, though not proof of it.

nd, 1.90, 1.14, nd, nd, nd (mean 1.52; controls 0 of 18): ASSNSVLYLSRSKNSVA / KASTRES / QQYHRLPLS.
nd, nd, nd, nd, nd, nd (controls 0 of 18): KSSQSVLYESRNKNSVA / WASTRES / QQYHRLPNS.
0.70, 0.35, 1.01, 0.79, 0.79, 0.55 (mean 0.70; controls 2 of 18): NMGQSMLGESRNKNSVA / HQSTRED / QHYHRLPLS.
1.09, 1.39, 1.21, 1.17, 1.43, 1.50 (mean 1.30; controls 4 of 18): SLGLVTMLEYAGRNSVA / NNSTRED / QQYDRLPLS.
0.25, -0.03, -0.15, -0.18, 0.05, -0.13 (mean -0.03; controls 0 of 18): KLAMYLEMWADTYHGVA / DANHKAS / QQYNRLPLS.
2.61, 1.82, nd, nd, 2.82, 3.09 (mean 2.59; controls 1 of 18): KMSQSVLYESRNSNSVA / WASTRES / SQYARLPLS.
0.80, 0.91, 0.48, 0.52, 0.50, 0.73 (mean 0.66; controls 3 of 18): VLQQSVLPESRNKNSVA / EASTRLS / QQYHRLPLS.
0.11, -0.05, 0.07, 0.08, -0.10, 0.07 (mean 0.03; controls 0 of 18): QLGASFDLTSKNKNSVA / EQSTREN / QQYHRLPLS.
0.53, 0.30, 0.45, 0.35, 0.96, 0.22 (mean 0.47; controls 0 of 18): KLSQSVLYESRVKNSVA / NASLRES / QQYHRLPLS.
nd, nd, 3.73, nd, nd, 1.70 (mean 2.71; controls 1 of 18): KSSQSVLYESRNKNSVA / GASTRES / QQYHRLPES.
0.77, 0.68, 0.72, 0.38, 0.46, 0.67 (mean 0.61; controls 0 of 18): KSSQSELQESRNKNSVA / DASTRES / QQYHRLPLS.
-0.56, -0.58, -0.37, -0.68, -0.63, -0.17 (mean -0.50; controls 0 of 18): TMPQVWMYESKNKNNVA / EQSTRED / QQYFRLPLS.
nd, nd, nd, nd, nd, nd (controls 0 of 18): KLSATYRYESQNKNSIA / EMTTREA / QCYHRLPLS.
-0.17, -0.27, -0.38, -0.51, -0.21, 0.04 (mean -0.25; controls 2 of 18): KCSQSVLGEQRNKNSVA / DASTRES / QQYHRLPLS.
0.55, 0.41, 0.44, 0.04, 0.41, 0.46 (mean 0.39; controls 0 of 18): ALRGVGYDEQVKHSAIA / DGEHLNN / QQYSMLPLS.
0.52, 0.28, 0.24, 0.29, 0.13, 0.66 (mean 0.35; controls 1 of 18): MLTMFANENAGKSSNIA / DTNNLNT / QQYQRLPFM.
-0.45, 1.01, -0.23, 0.11, 0.90, 0.68 (mean 0.34; controls 0 of 18): KLSQVTEYEMHNKDNVA / DLTTRGS / QDYHRLPLS.
1.09, 1.31, 0.88, 0.53, 1.01, 0.73 (mean 0.93; controls 0 of 18): KISMLYNFAQTNKNSIA / EMTTRED / QHYHRLPLS.
nd, nd, nd, nd, 1.24, nd (controls 0 of 18): KVQNHSSGTLNDKNAVA / EDTEVAV / QQYVRLPLI.
nd, nd, nd, nd, nd, 1.60 (controls 0 of 18): IVSQLMLWGMHAKNSIA / EAELRLN / QQYERLPLF.
0.33, 0.21, 0.34, 0.53, 0.28, 0.49 (mean 0.36; controls 0 of 18): KLSQSVLFWGHAINSVA / EMETREK / QQYDRLPLS.
-0.23, -0.17, 0.04, -0.17, -0.08, -0.20 (mean -0.13; controls 0 of 18): SMFEKEYAELQNENNIA / DTTARMV / QQYFRLPLL.
-0.23, -0.42, -0.39, -0.46, -0.45, -0.34 (mean -0.38; controls 1 of 18): KVQQSVLYESRNKNNVA / HASTRED / QQYARLPLS.
0.07, -0.06, 0.37, -0.38, -0.35, -0.38 (mean -0.12; controls 1 of 18): TISQVMNTLTRNTNNVA / DLTEREK / QQYFRLPLS.
2.35, nd, 2.20, 1.43, 3.03, 1.22 (mean 2.05; controls 0 of 18): KSDDSVLYESRNKNGCA / DASTRES / QQYHRLGLS.
0.89, 0.96, 0.94, 0.91, 1.02, 1.48 (mean 1.03; controls 2 of 18): KISGQYRWEQLSKNSIA / EAQTRLK / QQYHRLPLS.
0.53, 0.52, 0.77, 0.26, 0.36, 1.03 (mean 0.58; controls 1 of 18): KLEQSVLYESRNKNSVA / HASTREL / QQYHRLPLS.
1.55, 0.54, 1.07, 1.05, 1.20, 0.76 (mean 1.03; controls 1 of 18): NISESMYFQTRMKNNIA / EVTTRER / QHYHRLPLS.
0.94, 0.42, 0.40, 0.45, 0.53, 0.64 (mean 0.56; controls 4 of 18): MMSQVTGLGQRHRNNVA / QTSEREP / QQYDRLPLV.
nd, nd, nd, nd, nd, nd (controls 0 of 18): IISQLYNMGQFAINSVA / QASIRCN / QQYDRLPLA.
1.12, nd, 1.06, 1.23, 1.96, 1.29 (mean 1.33; controls 0 of 18): HMSMLTMMGMRHRNSVA / QMTTREN / QQYDRLPLA.
0.81, 1.07, 1.05, 1.11, 1.01, 0.93 (mean 1.00; controls 0 of 18): MVQQLYNMGSFAINSVA / QASTRNE / QQYDRLPLM.
nd, nd, nd, nd, nd, nd (controls 0 of 18): KSSQSVLYESRFKNSVA / WGSTRES / QQYHVMPLS.
0.86, 0.75, 0.38, 0.33, 0.70, 0.81 (mean 0.64; controls 0 of 18): TISGVMQSMSHSKSNVA / EVSTRLD / QQYVRLPLA.
-0.27, -0.35, 0.02, -0.28, -0.45, -0.19 (mean -0.25; controls 0 of 18): KSHISELYEDRNQNSVA / SASQRLE / QQYHRLPLS.
0.87, 0.40, 0.69, 0.97, 0.44, 0.67 (mean 0.68; controls 0 of 18): KFSQSVLKESRNKNSVA / WASTRES / QQYHRLPLS.
nd, 3.79, nd, nd, nd, nd (controls 0 of 18): KSNQSVLYESRTKNSIA / WTSTRES / QQYHRLPLS.
0.43, 0.46, 0.18, 0.05, 0.38, 0.52 (mean 0.34; controls 1 of 18): TLSQSMDMTSRNVNSVA / DLTNRGN / QQYHRLPLS.
0.77, 0.88, 0.25, 0.58, 0.28, 0.59 (mean 0.56; controls 0 of 18): QIQSESEHPYKDKNSMA / DSECKAA / QQYFRLPLM.
nd, nd, nd, 3.40, nd, 2.03 (mean 2.72; controls 0 of 18): MFEGYNSEGEANNNNVA / DHNCGER / QQYYRLPLT.
0.19, 0.16, 0.42, 0.28, 0.12, 0.23 (mean 0.24; controls 0 of 18): TLGNQPTEMRDNKHAVA / DDHQRDR / QQYMRLPLS.
0.45, 0.59, 0.68, 0.74, 0.79, 0.85 (mean 0.68; controls 1 of 18): MVNGIMDHLSKNTNNVA / ETTTRES / QQYDRLPLV.
nd, 2.26, 2.00, 2.16, 3.31, 3.97 (mean 2.74; controls 0 of 18): KLMVFPTNAGMTQANIA / DASHSTD / QQYGRLPLM.
nd, nd, 0.68, -0.86, nd, 0.45 (mean 0.09; controls 0 of 18): RLSVNLDAGNISTNAIA / EGKSLEQ / QQYMRLPLG.
1.47, nd, 1.90, nd, nd, 0.92 (mean 1.43; controls 0 of 18): AISILDESVTGHYSNVA / EQHVTRM / QQYFRLPLI.
-0.08, -0.03, -0.30, -0.37, -0.48, -0.04 (mean -0.22; controls 1 of 18): KLPQSHLYESRNKNSVA / DASTRES / QQYHRLPLS.
0.41, 0.44, 0.41, 0.58, 0.47, 0.90 (mean 0.54; controls 0 of 18): KSYQGVLYESRNKNHVA / GASTRES / QQYHRLPLS.
0.20, 0.09, 0.18, 0.02, 0.01, 0.11 (mean 0.10; controls 1 of 18): AVQQSELYGSRNKNSVA / NASTRED / QQYHRLPLS.
0.50, 0.95, 0.86, 0.40, 0.42, 0.50 (mean 0.61; controls 1 of 18): QLDWYNSTATASANNVA / DVAQRMN / QQYMRLPLM.
0.68, 1.12, 0.61, 0.78, 1.35, 0.76 (mean 0.88; controls 1 of 18): KSSQSVLYESRNKNSVA / GASTRES / QEYHRLPLS.
1.64, 1.48, 1.17, 1.16, 0.89, 1.51 (mean 1.31; controls 0 of 18): KSSLSVLFESRNKNSVA / NASTRES / QQYHRLPLR.

Extract of 6 entries:

CDR-L1,CDR-L2,CDR-L3,"log10 Kd, replicates","log10 Kd (nM), mean",signal with controls
KLAMYLEMWADTYHGVA,DANHKAS,QQYNRLPLS,"0.25, -0.03, -0.15, -0.18, 0.05, -0.13",-0.03,0 of 18
MVQQLYNMGSFAINSVA,QASTRNE,QQYDRLPLM,"0.81, 1.07, 1.05, 1.11, 1.01, 0.93",1.00,0 of 18
TISGVMQSMSHSKSNVA,EVSTRLD,QQYVRLPLA,"0.86, 0.75, 0.38, 0.33, 0.70, 0.81",0.64,0 of 18
KSSQSVLYESRNKNSVA,GASTRES,QQYHRLPES,"nd, nd, 3.73, nd, nd, 1.70",2.71,1 of 18
QIQSESEHPYKDKNSMA,DSECKAA,QQYFRLPLM,"0.77, 0.88, 0.25, 0.58, 0.28, 0.59",0.56,0 of 18
QLGASFDLTSKNKNSVA,EQSTREN,QQYHRLPLS,"0.11, -0.05, 0.07, 0.08, -0.10, 0.07",0.03,0 of 18

Background: pairings of all light chain designs with three empty control strains gave a value in 4% of cases (median 2.64, 5th percentile 1.59). Values in that range, when seen in few replicates, are hard to tell from nonspecific mating. For each scFv, signals with the empty controls are counted beside the result.
Of ten entries with the parent sequence, four were seen in most replicates (averages 0.34 to 2.37), three in one and three in none, so single entries are noisy.
The range of this assay differs from that of the first round, and the authors advise against merging the two.
The authors averaged sequences with at least three values out of six and counted those with two or fewer as poor binders.